Tested on: U87MG xenografts
Conditions: mouse, in vivo, iv

Substance: fluorine-18 fluorodeoxyglucose [[^18F]F-FDG]
- SUVmax of the tumor: 0.36 ± 0.06

Reference: PMC10654779, “Development of a fibroblast activation protein-targeted PET/NIR dual-modality probe and its application in head and neck cancer” (Frontiers in Bioengineering and Biotechnology, 2023)
